Data published in patent US20140100156A1 (SANOFI, priority 2012, published 2014).

Chains of the proteins cited; added tags and fusions are not shown. Residues count along the entry.
UniProt P47871, 26-477: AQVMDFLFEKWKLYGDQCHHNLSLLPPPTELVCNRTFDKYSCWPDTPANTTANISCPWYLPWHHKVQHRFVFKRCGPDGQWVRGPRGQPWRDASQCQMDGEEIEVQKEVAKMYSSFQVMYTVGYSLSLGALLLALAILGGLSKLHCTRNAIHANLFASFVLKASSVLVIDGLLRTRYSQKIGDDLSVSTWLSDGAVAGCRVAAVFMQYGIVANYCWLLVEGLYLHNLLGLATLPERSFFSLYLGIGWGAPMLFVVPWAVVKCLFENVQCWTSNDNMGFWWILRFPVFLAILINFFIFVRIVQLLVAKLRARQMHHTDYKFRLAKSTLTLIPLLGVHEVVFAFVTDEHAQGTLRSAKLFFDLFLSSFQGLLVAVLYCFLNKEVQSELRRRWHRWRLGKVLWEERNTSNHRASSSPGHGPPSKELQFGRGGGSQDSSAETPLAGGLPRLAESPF
UniProt P43220, 24-463: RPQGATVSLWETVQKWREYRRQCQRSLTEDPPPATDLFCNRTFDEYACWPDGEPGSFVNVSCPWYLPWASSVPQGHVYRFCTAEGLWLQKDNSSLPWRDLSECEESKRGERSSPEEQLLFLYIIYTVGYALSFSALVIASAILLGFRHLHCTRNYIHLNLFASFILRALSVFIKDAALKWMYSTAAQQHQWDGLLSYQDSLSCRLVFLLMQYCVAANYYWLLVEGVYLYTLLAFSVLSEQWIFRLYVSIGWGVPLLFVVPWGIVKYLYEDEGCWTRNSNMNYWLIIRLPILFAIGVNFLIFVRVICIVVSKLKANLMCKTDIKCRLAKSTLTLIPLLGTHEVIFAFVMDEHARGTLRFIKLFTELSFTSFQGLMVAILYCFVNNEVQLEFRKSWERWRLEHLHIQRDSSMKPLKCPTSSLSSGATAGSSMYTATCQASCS

Assays:
human glucagon receptor = target: T1, human glucagon receptor (Homo sapiens, UniProt P47871); experiment: cAMP response (HTRF) of HEK-293 cells stably expressing human glucagon receptor; format: cell-based; details: Table 5, cAMP, HEK-293
T1 construct: expressed in transfected cells; host or cells: HEK-293

human GLP-1 receptor = target: T2, human GLP-1 receptor (Homo sapiens, UniProt P43220); experiment: cAMP response (HTRF) of HEK-293 cells stably expressing human GLP-1 receptor; format: cell-based; details: Table 5, cAMP, HEK-293
T2 construct: expressed in transfected cells; host or cells: HEK-293

Row | Structure (SMILES) | pEC50 (human glucagon receptor; EC50 hGlucagon-R) | pEC50 (human GLP-1 receptor; EC50 hGLP-1R) | pEC50 (human glucagon receptor; read-out: EC50 hGlucagon-R) | pEC50 (human GLP-1 receptor; read-out: EC50 hGLP-1R)
1 | CC[C@H](C)[C@H](NC(=O)[C@H](Cc1ccccc1)NC(=O)[C@H](CC(=O)O)NC(=O)[C@H](CCC(N)=O)NC(=O)[C@H](C)NC(=O)[C@H](C)NC(=O)[C@H](CCCNC(=N)N)NC(=O)[C@H](CO)NC(=O)[C@H](CCC(=O)O)NC(=O)[C@H](CCCCNC(=O)CCCNC(=O)CCC(=O)Oc1c(C)c(C)c2c(c1C)CC[C@@](C)(CCC[C@H](C)CCC[C@H](C)CCCC(C)C)O2)NC(=O)[C@H](CCC(N)=O)NC(=O)[C@H](CCCCN)NC(=O)[C@H](CO)NC(=O)[C@H](CC(C)C)NC(=O)[C@H](CC(=O)O)NC(=O)[C@H](CO)NC(=O)[C@@H](NC(=O)[C@H](Cc1ccccc1)NC(=O)[C@@H](NC(=O)CNC(=O)[C@H](CCC(N)=O)NC(=O)[C@@H](CO)NC(=O)[C@@H](N)Cc1c[nH]cn1)[C@@H](C)O)[C@@H](C)O)C(=O)N[C@@H](CCC(=O)O)C(=O)N[C@@H](Cc1c[nH]c2ccccc12)C(=O)N[C@@H](CC(C)C)C(=O)N[C@@H](CCCCN)C(=O)N[C@@H](C)C(=O)NCC(=O)NCC(=O)N1CCC[C@H]1C(=O)N[C@@H](CO)C(=O)N[C@@H](CO)C(=O)NCC(=O)N[C@@H](C)C(=O)N1CCC[C@H]1C(=O)N1CCC[C@H]1C(=O)N1CCC[C@H]1C(=O)N[C@@H](CO)C(N)=O [compound 58] | 10.82 | 10.34 |  | 
2 | CCCCCCCCCCCCCCCCCCCCC(=O)N[C@@H](CCC(=O)NCCCC[C@H](NC(=O)[C@H](CCC(N)=O)NC(=O)[C@H](CCCCN)NC(=O)[C@H](CO)NC(=O)[C@H](CC(C)C)NC(=O)[C@H](CC(=O)O)NC(=O)[C@H](CO)NC(=O)[C@@H](NC(=O)[C@H](Cc1ccccc1)NC(=O)[C@@H](NC(=O)CNC(=O)[C@H](CCC(N)=O)NC(=O)[C@@H](CO)NC(=O)[C@@H](N)Cc1c[nH]cn1)[C@@H](C)O)[C@@H](C)O)C(=O)N[C@@H](CCC(=O)O)C(=O)N[C@@H](CO)C(=O)N[C@@H](CCCNC(=N)N)C(=O)N[C@@H](C)C(=O)N[C@@H](C)C(=O)N[C@@H](CCC(N)=O)C(=O)N[C@@H](CC(=O)O)C(=O)N[C@@H](Cc1ccccc1)C(=O)N[C@H](C(=O)N[C@@H](CCC(=O)O)C(=O)N[C@@H](Cc1c[nH]c2ccccc12)C(=O)N[C@@H](CC(C)C)C(=O)N[C@@H](CCCCN)C(=O)N[C@@H](C)C(=O)NCC(=O)NCC(=O)N1CCC[C@H]1C(=O)N[C@@H](CO)C(=O)N[C@@H](CO)C(=O)NCC(=O)N[C@@H](C)C(=O)N1CCC[C@H]1C(=O)N1CCC[C@H]1C(=O)N1CCC[C@H]1C(=O)N[C@@H](CO)C(N)=O)[C@@H](C)CC)C(=O)O [compound 59] |  |  | 11.17 | 11.10
3 | CCCCCCCCCCCCCCCCCCCCCC(=O)N[C@@H](CCC(=O)NCCCC[C@H](NC(=O)[C@H](CCC(N)=O)NC(=O)[C@H](CCCCN)NC(=O)[C@H](CO)NC(=O)[C@H](CC(C)C)NC(=O)[C@H](CC(=O)O)NC(=O)[C@H](CO)NC(=O)[C@@H](NC(=O)[C@H](Cc1ccccc1)NC(=O)[C@@H](NC(=O)CNC(=O)[C@H](CCC(N)=O)NC(=O)[C@@H](CO)NC(=O)[C@@H](N)Cc1c[nH]cn1)[C@@H](C)O)[C@@H](C)O)C(=O)N[C@@H](CCC(=O)O)C(=O)N[C@@H](CO)C(=O)N[C@@H](CCCNC(=N)N)C(=O)N[C@@H](C)C(=O)N[C@@H](C)C(=O)N[C@@H](CCC(N)=O)C(=O)N[C@@H](CC(=O)O)C(=O)N[C@@H](Cc1ccccc1)C(=O)N[C@H](C(=O)N[C@@H](CCC(=O)O)C(=O)N[C@@H](Cc1c[nH]c2ccccc12)C(=O)N[C@@H](CC(C)C)C(=O)N[C@@H](CCCCN)C(=O)N[C@@H](C)C(=O)NCC(=O)NCC(=O)N1CCC[C@H]1C(=O)N[C@@H](CO)C(=O)N[C@@H](CO)C(=O)NCC(=O)N[C@@H](C)C(=O)N1CCC[C@H]1C(=O)N1CCC[C@H]1C(=O)N1CCC[C@H]1C(=O)N[C@@H](CO)C(N)=O)[C@@H](C)CC)C(=O)O [compound 60] |  |  | 10.71 | 10.42

pEC50: −log10 of the molar value. Where two headings read alike, the source gives them in different places.
